These are literature values, as cited in patent publication US20170209483A1, “ANTIBIOTIC ACTIVITY OF IRON SEQUESTERING POLYMERS” (UNIVERSITY OF KANSAS, priority 2014, published 2017).

For the data set the following is noted: reference chelator of the ligand competition method; cited from earlier work.

“sodium ethylene diamine tetraacetate [EDTA]”: the Iron stability constant is reported as 10^25.
